Source: ChEMBL document CHEMBL3271947, “Improved delivery through biological membranes. 3. Delivery of N-methylpyridinium-2-carbaldoxime chloride through the blood-brain barrier in its dihydropyridine pro-drug form” (1976)

What was measured:
Mus musculus [1] = assay: Reactivation of AChE in ICR mouse brain at 40 mg/kg, iv administered 2 hrs post DFP challenge measured after 30 to 120 mins relative to control
Mus musculus [2] = assay: Protection against phospholine iodide-induced toxicity in white mouse assessed as survival at 50 mg/kg administered 10 mins prior to phospholine iodide challenge

CN1CC=CC=C1/C=N/O
Activity (Mus musculus [1]): Active
Activity (Mus musculus [2]): Active

C[n+]1ccccc1C=NO
Activity (Mus musculus [2]): Active

Calls of active or inactive are those of the source. The rule behind the calls is not given here.
